Patent publication US20170253562A1, “Nampt Inhibitors” (AbbVie Inc., priority 2011, published 2017)

The chains behind the UniProt entries cited, without tags or fusion partners. Where a name states a change or a piece, a line headed by the entry shows the natural chain unless it says otherwise.
UniProt P43490: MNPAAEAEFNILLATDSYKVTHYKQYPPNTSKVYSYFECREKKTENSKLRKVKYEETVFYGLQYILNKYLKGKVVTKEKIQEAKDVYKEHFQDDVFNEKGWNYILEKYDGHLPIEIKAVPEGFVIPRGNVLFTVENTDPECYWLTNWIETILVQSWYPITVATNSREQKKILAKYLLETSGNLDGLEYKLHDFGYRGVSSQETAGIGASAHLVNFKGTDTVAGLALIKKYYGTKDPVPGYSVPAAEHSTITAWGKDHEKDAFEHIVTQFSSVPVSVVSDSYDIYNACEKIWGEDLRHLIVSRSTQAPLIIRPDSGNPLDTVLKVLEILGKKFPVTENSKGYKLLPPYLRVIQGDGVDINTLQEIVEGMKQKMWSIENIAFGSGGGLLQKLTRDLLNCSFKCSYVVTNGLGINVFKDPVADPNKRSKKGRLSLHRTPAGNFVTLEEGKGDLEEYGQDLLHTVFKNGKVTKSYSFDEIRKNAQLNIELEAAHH

Target: recombinant, human, C-terminally-His tagged NAMPT (Homo sapiens, UniProt P43490)
Experiment: Time-Resolved Fluorescence Resonance Energy Transfer (TR-FRET) binding assay of NAMPT

`CC(O)CNC(=O)c1ccc(NC(=O)N2Cc3ccccc3C2)cc1` (stereo not shown) [Example 2, N-{4-[(2-hydroxypropyl)carbamoyl]phenyl}-1,3-dihydro-2H-isoindole-2-carboxamide] gave an IC50 of 26.4 nM.
